Molecular target: Kappa-type opioid receptor (Cavia porcellus) (UniProt P41144)
Test: Ratio measured as the Ki(kappa) to that of Ki(mu) values.

Chains of the proteins cited; added tags and fusions are not shown. Lines headed by an entry give the natural chain unless they say otherwise; changes in a name come on top.
UniProt P41144: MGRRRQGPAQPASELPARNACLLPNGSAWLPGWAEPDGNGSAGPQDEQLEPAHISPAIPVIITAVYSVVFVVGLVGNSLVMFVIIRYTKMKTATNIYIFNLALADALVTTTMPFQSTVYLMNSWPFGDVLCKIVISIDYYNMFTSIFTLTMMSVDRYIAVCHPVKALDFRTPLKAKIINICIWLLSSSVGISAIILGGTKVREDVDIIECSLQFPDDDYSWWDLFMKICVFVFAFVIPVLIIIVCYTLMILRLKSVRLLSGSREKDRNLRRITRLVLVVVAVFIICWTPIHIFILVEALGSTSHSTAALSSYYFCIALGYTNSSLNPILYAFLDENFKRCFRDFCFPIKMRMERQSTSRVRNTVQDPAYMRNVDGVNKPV

Which Ratio does the source give for CN(C(=O)Cc1ccc(Cl)c(Cl)c1)C1CCCCC1N1CCCC1 (centres undefined) here?
The Ratio was 88.

How did the Ratio turn out when CN(C(=O)Cc1cccc2sccc12)[C@H]1CCCC[C@@H]1N1CCCC1 was run?
The Ratio was 11.

For CN(C(=O)Cc1cccc2ccccc12)[C@H]1CCC2(CCCO2)C[C@@H]1N1CCCC1 (some centres undefined), which Ratio is on record?
The Ratio was 258.

For CC1c2cccc3cccc(c23)C1C(=O)N(C)[C@H]1CCC2(CCCO2)C[C@@H]1N1CCNC1 (some centres undefined), which Ratio is on record?
Its Ratio is 227.
